## Reported vapor pressure values for industrial, environmental and drug-like chemicals

Data: OPERA 2.9 data sets, kmansouri/OPERA on GitHub.

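OPERA's authors assembled the values from existing databases and did not measure them anew. One number stands for a compound and property, with no spread given. Conditions of the individual experiments are not part of the data. Where a salt, mixture or single isomer is drawn, the source does not say that exactly this form was tested. Some upstream entries may be estimates or bounds without being marked so.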

Vapor pressures (log10 mmHg) refer to near room temperature, 15 to 30 °C; higher is more volatile. The databases behind each value are named after "via".

Listed for CC1(C)C(=CC=C2C(Cl)=C(C=CC3=[N+](CCCCS(=O)(=O)[O-])c4ccc5ccccc5c4C3(C)C)c3ccccc32)N(CCCCS(=O)(=O)O)c2ccc3ccccc3c21: log VP -8.201 (log10 mmHg) (via eChemPortal). O=Cc1ccc(C=O)cc1 [1,4-Benzenedicarboxaldehyde] is reported with log VP -2.595 (log10 mmHg) (via eChemPortal). CC1=CC[C@H](CC=O)C1(C)C [[(1R)-2,2,3-Trimethylcyclopent-3-en-1-yl]acetaldehyde] is reported with log VP -0.824 (log10 mmHg) (via eChemPortal). C=Cc1ncnc(Cl)c1F [4-Chloro-6-ethenyl-5-fluoropyrimidine] is reported with log VP 0.003 (log10 mmHg) (via eChemPortal). The entry for NCCS [Cysteamine] lists log VP -0.878 (log10 mmHg) (via eChemPortal). For O=C=NS(=O)(=O)c1ccccc1C(F)(F)F [Benzenesulfonyl isocyanate, 2-(trifluoromethyl)-] the data give log VP -1.423 (log10 mmHg) (via eChemPortal). For OCCOc1ccc2ccccc2c1 [2-(2-Naphthalenyloxy)ethanol] the data give log VP -5.652 (log10 mmHg) (via eChemPortal). COCC(F)(F)C(F)(F)F [Methyl 1H,1H-perfluoropropyl ether] has log VP 2.484 (log10 mmHg) (via ICF).

For O=C(O)Cc1c(Cl)ccc(Cl)c1Cl [Chlorfenac] the data give log VP -4.77 (log10 mmHg) (via PubChem). The entry for COC(=O)C1CC(=O)C(C(=O)OC)CC1=O (centres undefined) [Dimethyl succinylsuccinate] lists log VP -5.709 (log10 mmHg) (via eChemPortal). CCCCOC(=O)CC(C)O (centres undefined) [Butanoic acid, 3-hydroxy-, butyl ester] is reported with log VP -0.979 (log10 mmHg) (via eChemPortal). For Brc1ccc(Oc2c(Br)cc(Br)cc2Br)cc1 [BDE-75] the data give log VP -5.433 (log10 mmHg) (via OCHEM). The entry for CCO[Si](OCC)(OCC)N(CC)CC [Silanamine, 1,1,1-triethoxy-N,N-diethyl-] lists log VP -0.296 (log10 mmHg) (via eChemPortal). CC1(C)CCC[C@]2(C)[C@H]3CCO[C@]3(C)CC[C@@H]12 [(-)-Ambroxide] has log VP -3.305 (log10 mmHg) (via eChemPortal). The entry for c1ccc(C2=NCCN2)cc1 [1H-Imidazole, 4,5-dihydro-2-phenyl-] lists log VP -3.424 (log10 mmHg) (via eChemPortal). The entry for c1ccc2[nH]nnc2c1 [1,2,3-Benzotriazole] lists log VP -1.398 (log10 mmHg) (via OCHEM).

For CCCCCCCCCCCC(=O)Cl [Dodecanoyl chloride] the data give log VP -2.372 (log10 mmHg) (via eChemPortal). C=C(Br)C(=O)Nc1ccc(Nc2cc(S(=O)(=O)[O-])c(N)c3c2C(=O)c2ccccc2C3=O)c(S(=O)(=O)[O-])c1.[Na+].[Na+] is reported with log VP -6.71 (log10 mmHg) (via eChemPortal). Listed for Cc1c(Cl)cccc1Cl [2,6-Dichlorotoluene]: log VP -0.593 (log10 mmHg) (via PubChem). For C=C(CC(=O)O)C(=O)O [Methylenebutanedioic acid] the data give log VP -7.064 (log10 mmHg) (via eChemPortal). For CC1(C)CC(N=C=O)CC(C)(CN=C=O)C1 (centres undefined) [Isophorone diisocyanate] the data give log VP -3.523 (log10 mmHg) (via PubChem, eChemPortal). Listed for CCCCCCCCCCCCCCCCCCN [1-Octadecanamine]: log VP -4.103 (log10 mmHg) (via eChemPortal). Clc1cccc(-c2cc(Cl)c(Cl)cc2Cl)c1 has log VP -4.305 (log10 mmHg) (via OCHEM). Cc1cccc2sc(N)nc12 [2-Amino-4-methylbenzothiazole] is reported with log VP -3.401 (log10 mmHg) (via eChemPortal).

COc1c(O)c(OC)c(Cl)c(C=O)c1Cl [Benzaldehyde, 2,6-dichloro-4-hydroxy-3,5-dimethoxy-] is reported with log VP -3.726 (log10 mmHg) (via OCHEM). O=S(=O)([O-])C(O)CCCC(O)S(=O)(=O)[O-].[Na+].[Na+] (centres undefined) [1,5-Dihydroxy-1,5-pentanedisulfonic acid, disodium salt] has log VP -7.654 (log10 mmHg) (via eChemPortal). CCCCCCCCCCCC(=O)N(CCCC)CCCC [N,N-Dibutyldodecanamide] is reported with log VP -6.62 (log10 mmHg) (via eChemPortal). The entry for O=C=NCc1cccc(CN=C=O)c1 [1,3-Bis(isocyanatomethyl)benzene] lists log VP -3.811 (log10 mmHg) (via eChemPortal). The entry for CC(C)COC(=O)/C=C\C(=O)OCC(C)C [Diisobutyl maleate] lists log VP -1.385 (log10 mmHg) (via eChemPortal). Cc1ccc(O)c(-n2nc3ccccc3n2)c1 [2-(2H-Benzotriazol-2-yl)-4-methylphenol] has log VP -5.959 (log10 mmHg) (via eChemPortal). Clc1cc(-c2c(Cl)cc(Cl)c(Cl)c2Cl)cc(Cl)c1Cl [2,3,3',4,4',5',6-Heptachlorobiphenyl] has log VP -5.666 (log10 mmHg) (via OCHEM). CNC(=O)NC [N,N'-Dimethylurea] is reported with log VP -3.502 (log10 mmHg) (via PubChem, eChemPortal).

O=C([O-])C(O)C(O)C(=O)[O-].[K+].[K+] (centres undefined) [Potassium tartrate] has log VP -7.307 (log10 mmHg) (via eChemPortal). The entry for CCOCCCO [3-Ethoxy-1-propanol] lists log VP 0.914 (log10 mmHg) (via PubChem). For CCOCCC(=O)OCC [Ethyl 3-ethoxypropionate] the data give log VP 0.206 (log10 mmHg) (via OFMPub, eChemPortal). CCCOC(F)(F)C(F)(F)C(F)(F)C(F)(F)F [1,1,1,2,2,3,3,4,4-Nonafluoro-4-propoxybutane] has log VP 1.711 (log10 mmHg) (via ICF). FCOC(F)(F)C(F)(F)C(F)(F)F [1,1,1,2,2,3,3-Heptafluoro-3-(fluoromethoxy)propane] has log VP 2.571 (log10 mmHg) (via ICF). For CCC(C)C=O (centres undefined) [2-Methylbutanal] the data give log VP 1.756 (log10 mmHg) (via eChemPortal). For C[Si](C)(Cl)CCCC#N [Butanenitrile, 4-(chlorodimethylsilyl)-] the data give log VP 0.815 (log10 mmHg) (via eChemPortal). For COCC(F)(F)C(F)(F)C(F)(F)F [Methyl 2H,2H-perfluorobutyl ether] the data give log VP 2.084 (log10 mmHg) (via ICF).

For COc1ccc(Cl)cc1 [Benzene, 1-chloro-4-methoxy-] the data give log VP -3.614 (log10 mmHg) (via OCHEM). For C=C1CC2C(CCC3(C)C2CCC3(OC(C)=O)C(C)=O)C2(C)CCC(=O)C=C12 (centres undefined) [6-Methylidene-3,20-dioxopregn-4-en-17-yl acetate] the data give log VP -11.87 (log10 mmHg) (via eChemPortal). The entry for COC(F)(F)C(F)(F)C(F)(F)C(F)(F)C(F)(F)F [1,1,1,2,2,3,3,4,4,5,5-Undecafluoro-5-methoxypentane] lists log VP 1.845 (log10 mmHg) (via ICF). For C[SiH](C)O[SiH](C)C [1,1,3,3-Tetramethyldisiloxane] the data give log VP 2.051 (log10 mmHg) (via eChemPortal). CC(O)CN(C)C (centres undefined) [Dimepranol] is reported with log VP 1.009 (log10 mmHg) (via eChemPortal). Listed for C=CC(=O)Nc1ccccc1 [N-Phenylacrylamide]: log VP -4.176 (log10 mmHg) (via eChemPortal). Listed for COC(=O)CCCCC(=O)O [Methyl hydrogen adipate]: log VP -1.955 (log10 mmHg) (via eChemPortal). Listed for c1ccc(C(c2ccccc2)(c2ccccc2)N2CCOCC2)cc1 [Trifenmorph]: log VP -6.854 (log10 mmHg) (via OCHEM).

Clc1cccc(-c2ccc(Cl)c(Cl)c2Cl)c1 has log VP -4.365 (log10 mmHg) (via OCHEM). Listed for CC(C=O)Cc1cccc(C(C)(C)C)c1 (centres undefined) [3-(m-tert-Butylphenyl)-2-methylpropionaldehyde]: log VP -2.497 (log10 mmHg) (via eChemPortal). CCCCC(CC)CCC(C)c1ccc2cccnc2c1O (centres undefined) [8-Quinolinol, 7-(4-ethyl-1-methyloctyl)-] is reported with log VP -4.811 (log10 mmHg) (via eChemPortal).

A selection of 7 entries from above:

For CCOCCC(=O)OCC [Ethyl 3-ethoxypropionate] the data give log VP 0.206 (log10 mmHg) (via OFMPub, eChemPortal).
For CC(O)CN(C)C (centres undefined) [Dimepranol] the data give log VP 1.009 (log10 mmHg) (via eChemPortal).
For O=Cc1ccc(C=O)cc1 [1,4-Benzenedicarboxaldehyde] the data give log VP -2.595 (log10 mmHg) (via eChemPortal).
For Cc1c(Cl)cccc1Cl [2,6-Dichlorotoluene] the data give log VP -0.593 (log10 mmHg) (via PubChem).
For Cc1cccc2sc(N)nc12 [2-Amino-4-methylbenzothiazole] the data give log VP -3.401 (log10 mmHg) (via eChemPortal).
For CC1=CC[C@H](CC=O)C1(C)C [[(1R)-2,2,3-Trimethylcyclopent-3-en-1-yl]acetaldehyde] the data give log VP -0.824 (log10 mmHg) (via eChemPortal).
For C[Si](C)(Cl)CCCC#N [Butanenitrile, 4-(chlorodimethylsilyl)-] the data give log VP 0.815 (log10 mmHg) (via eChemPortal).